Earlier results as cited in US10736889B2, “Method of treating dyskinesia” (Rutgers, The State University of New Jersey, priority 2011, dated 2020).

Protein sequences, listed by entry. Tags and fused reporters are not part of them. Lines headed by an entry give the natural chain unless they say otherwise; changes in a name come on top.
UniProt P41145: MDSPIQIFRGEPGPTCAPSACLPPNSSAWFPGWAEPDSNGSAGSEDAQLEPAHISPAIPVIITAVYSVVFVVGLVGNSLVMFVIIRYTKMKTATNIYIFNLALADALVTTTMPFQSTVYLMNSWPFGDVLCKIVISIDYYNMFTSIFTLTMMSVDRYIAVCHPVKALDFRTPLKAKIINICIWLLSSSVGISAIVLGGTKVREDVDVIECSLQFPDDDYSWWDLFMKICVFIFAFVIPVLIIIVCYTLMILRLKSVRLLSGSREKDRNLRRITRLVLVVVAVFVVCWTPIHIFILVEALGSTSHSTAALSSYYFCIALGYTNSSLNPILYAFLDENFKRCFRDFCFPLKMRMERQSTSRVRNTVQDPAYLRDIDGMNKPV

Target: κ-opioid receptors (Homo sapiens, UniProt P41145)

C=C1CC[C@@]2(O)[C@H]3Cc4ccc(O)c5c4[C@@]2(CCN3CC2CC2)[C@H]1O5 [Nalmefene]
Ki: ~83 pM
